Reference: US20170349638A1, “COMPANION DIAGNOSTIC TOOL FOR PEPTIDOMIMETIC MACROCYCLES” (AILERON Therapeutics, Inc., priority 2016, published 2017)

Amino acid sequences for entries named in this document (tags omitted).
UniProt Q00987, whole entry, looked up: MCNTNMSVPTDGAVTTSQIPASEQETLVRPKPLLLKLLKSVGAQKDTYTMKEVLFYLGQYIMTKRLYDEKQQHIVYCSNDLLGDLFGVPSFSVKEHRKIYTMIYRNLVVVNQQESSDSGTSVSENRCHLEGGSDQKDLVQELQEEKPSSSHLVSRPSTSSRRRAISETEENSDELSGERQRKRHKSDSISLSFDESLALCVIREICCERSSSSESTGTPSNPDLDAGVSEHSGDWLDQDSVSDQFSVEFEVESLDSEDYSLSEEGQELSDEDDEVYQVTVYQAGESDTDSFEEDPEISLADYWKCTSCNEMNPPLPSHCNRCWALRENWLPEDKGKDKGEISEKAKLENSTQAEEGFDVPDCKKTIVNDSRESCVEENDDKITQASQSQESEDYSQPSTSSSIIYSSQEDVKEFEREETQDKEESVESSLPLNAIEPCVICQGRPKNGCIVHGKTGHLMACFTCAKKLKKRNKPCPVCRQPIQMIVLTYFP

Legend:
SJSA-1 cells = assay: Cell viability assay (MTT, 72 h) SJSA-1
[1] = system: Human Total p21 in SJSA1 cells; assay: P21 ELISA assay; format: cell-based
HDM2 = HDM2 (Homo sapiens, UniProt Q00987); assay: FP Competition Blinding Assay | HDM2 IC50 (nM)
[2] = read-out: SJSA-1 EC50 (72 h), MTT
[3] = read-out: SJSA-1 EC50 (72 h), Table 26B

12 (LTFAAYWAALASAL; Ac, NH2, hydrocarbon staples, Nle; N-term Ac; MOD_RES (4)..(4): Alpha-Me R-azide 1,4 triazole (6 carbon) alanine olefin amino acid connected by an all-carbon crosslinker comprising one double bond; misc_feature (4)..(9): Crosslink between residues; MOD_RES (9) [compound 12]
EC50 (SJSA-1 cells; [2]): 15 to 30 µM

13 (LTFAAYWAALASAA; Ac, NH2, hydrocarbon staples; N-term Ac; MOD_RES (4)..(4): Alpha-Me R-azide 1,4 triazole (6 carbon) alanine olefin amino acid connected by an all-carbon crosslinker comprising one double bond; misc_feature (4)..(9): Crosslink between residues; MOD_RES (9) [compound 13]
EC50 (SJSA-1 cells; [2]): 5 to 15 µM

155 (LTFAEYWAQLASAA; Ac, NH2, staple, 3-Cl-Phe; N-term Ac; MOD_RES (3)..(3): 3-chloro-Phe; MOD_RES (4)..(4): Alpha-Me R-azide 1,4 triazole (6 carbon) alanine olefin amino acid connected by an all-carbon crosslinker comprising one double bond; misc_feature (4)..(11): Cross) [compound 155]
EC50 (SJSA-1 cells; [2]): 15 to 30 µM

286 (LTFAAYWAQAAAALA; Ac, NH2, staple, Cba, Nle; N-term Ac; MOD_RES (4)..(4): Alpha-Me R-azide 1,4 triazole (6 carbon) alanine olefin amino acid connected by an all-carbon crosslinker comprising one double bond; misc_feature (4)..(11): Crosslink between residues; MOD_RES () [compound 286]
p21 0.3 uM [1]: 481
p21 1 uM [1]: 1351
p21 3 uM [1]: 2882
p21 10 uM [1]: 3383
p21 30 uM [1]: 2479

287 (LTFAEYWAQAAAAIA; Ac, NH2, staple, difluoro-Phe, Cba; N-term Ac; MOD_RES (3)..(3): 3,4-difluoro-Phe; MOD_RES (4)..(4): Alpha-Me R-azide 1,4 triazole (6 carbon) alanine olefin amino acid connected by an all-carbon crosslinker comprising one double bond; misc_feature (4)..(11): C) [compound 287]
p21 0.3 uM [1]: 97
p21 1 uM [1]: 398
p21 3 uM [1]: 986
p21 10 uM [1]: 2828
p21 30 uM [1]: 3410

333 (LTFAEFWAQAASALA; Ac, NH2, staple, non-natural residues; N-term Ac; MOD_RES (4)..(4): Alpha-Me R-azide 1,4 triazole (6 carbon) alanine olefin amino acid connected by an all-carbon crosslinker comprising one double bond; misc_feature (4)..(11): Crosslink between residues; MOD_RES () [compound 333]
EC50 (SJSA-1 cells; [2]): 15 to 30 µM

CC(=O)N[C@@H](CC(C)C)C(=O)N[C@H](C(=O)N[C@@H](Cc1ccccc1)C(=O)N[C@]1(C)CCCCCCn2cc(nn2)CCC[C@@](C)(C(=O)N[C@@H](C)C(=O)N[C@@H](C)C(=O)N[C@@H](C)C(=O)N[C@@H](C)C(=O)N[C@@H](C)C(=O)N[C@H](C)C(N)=O)NC(=O)[C@H](CC(C)C)NC(=O)[C@H](CCC(N)=O)NC(=O)[C@H](C)NC(=O)[C@H](Cc2c[nH]c3ccccc23)NC(=O)[C@H](Cc2ccc(O)cc2)NC(=O)[C@H](C)NC1=O)[C@@H](C)O [SP450, Ac-LTF$4rn6AYWAQL$4a5AAAAAa-NH2]
EC50 (SJSA-1 cells; [3]): 5 to 15 µM

CC(=O)N[C@@H](CC(C)C)C(=O)N[C@H](C(=O)N[C@@H](Cc1ccccc1)C(=O)N[C@]1(C)CCCCCCn2cc(nn2)CCC[C@@](C)(C(=O)N[C@@H](C)C(=O)N[C@@H](C)C(=O)N[C@@H](C)C(=O)N[C@@H](C)C(=O)N[C@@H](C)C(=O)N[C@H](C)C(N)=O)NC(=O)[C@H](CC(C)C)NC(=O)[C@H](CCC(N)=O)NC(=O)[C@H](C)NC(=O)[C@H](Cc2c[nH]c3ccccc23)NC(=O)[C@H](Cc2ccc(O)cc2)NC(=O)[C@H](CCC(=O)O)NC1=O)[C@@H](C)O [SP451, Ac-LTF$4rn6EYWAQL$4a5AAAAAa-NH2]
EC50 (SJSA-1 cells; [3]): 5 to 15 µM

CC(=O)N[C@@H](CC(C)C)C(=O)N[C@H](C(=O)N[C@@H](Cc1ccccc1)C(=O)N[C@]1(C)CCCCCCn2nnc(c2I)CCC[C@@](C)(C(=O)N[C@@H](CO)C(=O)N[C@@H](C)C(=O)N[C@@H](C)C(N)=O)NC(=O)[C@H](CC2CCC2)NC(=O)[C@H](CCC(N)=O)NC(=O)[C@H](C)NC(=O)[C@H](Cc2c[nH]c3ccccc23)NC(=O)[C@H](Cc2ccc(O)cc2)NC(=O)[C@H](CCC(=O)O)NC1=O)[C@@H](C)O [SP457, Ac-LTF$4rn6EYWAQCba5I-$4a5SAA-NH2]
EC50 (SJSA-1 cells; [3]): < 5 µM

CC(=O)N[C@@H](CC(C)C)C(=O)N[C@H](C(=O)N[C@@H](C)C(=O)N[C@]1(C)CCCCCCn2nncc2CCC[C@@](C)(C(=O)N[C@@H](CO)C(=O)N[C@@H](C)C(=O)N[C@@H](C)C(N)=O)NC(=O)[C@H](CC2CCC2)NC(=O)[C@H](CCC(N)=O)NC(=O)[C@H](C)NC(=O)[C@H](Cc2c[nH]c3ccccc23)NC(=O)[C@H](Cc2ccc(O)cc2)NC(=O)[C@H](CCC(=O)O)NC1=O)[C@@H](C)O [SP459, Ac-LTA$5rn6EYWAQCba$5a5SAA-NH2]
EC50 (SJSA-1 cells; [3]): > 30 µM

CC(=O)N[C@@H](CC(C)C)C(=O)N[C@H](C(=O)N[C@@H](C)C(=O)N[C@]1(C)CCCCCCn2cc(nn2)CCC[C@@](C)(C(=O)N[C@@H](CO)C(=O)N[C@@H](C)C(=O)N[C@@H](C)C(N)=O)NC(=O)[C@H](CC2CCC2)NC(=O)[C@H](CCC(N)=O)NC(=O)[C@H](C)NC(=O)[C@H](Cc2c[nH]c3ccccc23)NC(=O)[C@H](Cc2ccc(O)cc2)NC(=O)[C@H](CCC(=O)O)NC1=O)[C@@H](C)O [SP460, Ac-LTA$4rn6EYWAQCba$4a5SAA-NH2]
EC50 (SJSA-1 cells; [3]): > 30 µM

CCCC[C@H](NC(=O)[C@H](C)NC(=O)[C@H](C)NC(=O)[C@]1(C)CSCCCCCCCSC[C@@](C)(NC(=O)[C@H](Cc2ccccc2)NC(=O)[C@@H](NC(=O)[C@H](CC(C)C)NC(C)=O)[C@@H](C)O)C(=O)N[C@@H](C)C(=O)N[C@@H](Cc2ccc(O)cc2)C(=O)N[C@@H](Cc2c[nH]c3ccccc23)C(=O)N[C@@H](C)C(=O)N[C@@H](CCC(N)=O)C(=O)N[C@@H](CC(C)C)C(=O)N1)C(=O)N[C@@H](C)C(N)=O [SP916, Ac-LTF%cs7AYWAQL%c7AANleA-NH2]
EC50 (SJSA-1 cells; [3]): 15 to 30 µM

CC(=O)N[C@@H](CC(C)C)C(=O)N[C@H](C(=O)N[C@@H](Cc1ccccc1)C(=O)N[C@]1(C)CSCCCCCCCSC[C@@](C)(C(=O)N[C@@H](C)C(=O)N[C@@H](C)C(=O)N[C@@H](C)C(=O)N[C@@H](C)C(=O)N[C@@H](C)C(=O)N[C@H](C)C(N)=O)NC(=O)[C@H](CC(C)C)NC(=O)[C@H](CCC(N)=O)NC(=O)[C@H](C)NC(=O)[C@H](Cc2c[nH]c3ccccc23)NC(=O)[C@H](Cc2ccc(O)cc2)NC(=O)[C@H](C)NC1=O)[C@@H](C)O [SP917, Ac-LTF%cs7AYWAQL%c7AAAAAa-NH2]
EC50 (SJSA-1 cells; [3]): > 30 µM

Ac- E T F $r8 A Y W A Q $ S -NH2 [SP-508]
IC50 (HDM2): 0.0228 µM

Ac-LTF$5rn6AYWAQL$5a5AAAAAa-NH2 [SP452]
EC50 (SJSA-1 cells; [3]): > 30 µM

Ac-LTF%csBphAYWAQL%cBphAAAAAa-NH2 [SP919]
EC50 (SJSA-1 cells; [3]): 5 to 15 µM

Read-outs that look alike come from different tables or passages of the source.
